Measurements taken from patent US9169509B2, “Topoisomerase 2b as a predictor of susceptibility to anthracycline-induced cardiotoxicity” (Board of Regents, The University of Texas System, priority 2013, dated 2015).

Tested on: mouse heart
Assay: Cardiac MRI for measuring cardiac function after chronic doxorubicin
Conditions: doxorubicin 5 mg/kg i.p. once a week for 5 weeks
[1] = Top2b+/+ and Top2b+/Δ mice, not in Top2bΔ/Δ

SMILES: COc1cccc2c1C(=O)c1c(O)c3c(c(O)c1C2=O)C[C@@](O)(C(=O)CO)C[C@@H]3O[C@H]1C[C@H](N)[C@H](O)[C@H](C)O1 [doxorubicin]
- Ejection fraction after treatment (Top2b+/+ and Top2b+/Δ mice, decreased from baseline 53%): 43%
- End diastolic volume (cardiac MRI) [1]: markedly increased
- End systolic volume (cardiac MRI) [1]: markedly increased
- Change in ejection fraction (Top2bΔ/Δ mice): no change
